System: P. berghei (sensitive strain)
Experiment: In vivo blood-schizontocidal antimalarial activity, rodent malaria model
Design: species or system mice
Conditions: 100 mg/kg/day × 4, oral

COc1cc(NC(C)CCCN)c2ncccc2c1 (stereo not shown) [PQ, primaquine]
P. berghei in vivo activity class: Inactive

— article PMC3057096 (Bioorganic & medicinal chemistry, 2010)
